The source of these data is PubChem BioAssay AID1511 (Johns Hopkins Ion Channel Center, 2009).

By UniProt entry, the sequences of proteins in these tests, tags left out. Where a name states a change or a piece, a line headed by the entry shows the natural chain unless it says otherwise.
UniProt Q12809: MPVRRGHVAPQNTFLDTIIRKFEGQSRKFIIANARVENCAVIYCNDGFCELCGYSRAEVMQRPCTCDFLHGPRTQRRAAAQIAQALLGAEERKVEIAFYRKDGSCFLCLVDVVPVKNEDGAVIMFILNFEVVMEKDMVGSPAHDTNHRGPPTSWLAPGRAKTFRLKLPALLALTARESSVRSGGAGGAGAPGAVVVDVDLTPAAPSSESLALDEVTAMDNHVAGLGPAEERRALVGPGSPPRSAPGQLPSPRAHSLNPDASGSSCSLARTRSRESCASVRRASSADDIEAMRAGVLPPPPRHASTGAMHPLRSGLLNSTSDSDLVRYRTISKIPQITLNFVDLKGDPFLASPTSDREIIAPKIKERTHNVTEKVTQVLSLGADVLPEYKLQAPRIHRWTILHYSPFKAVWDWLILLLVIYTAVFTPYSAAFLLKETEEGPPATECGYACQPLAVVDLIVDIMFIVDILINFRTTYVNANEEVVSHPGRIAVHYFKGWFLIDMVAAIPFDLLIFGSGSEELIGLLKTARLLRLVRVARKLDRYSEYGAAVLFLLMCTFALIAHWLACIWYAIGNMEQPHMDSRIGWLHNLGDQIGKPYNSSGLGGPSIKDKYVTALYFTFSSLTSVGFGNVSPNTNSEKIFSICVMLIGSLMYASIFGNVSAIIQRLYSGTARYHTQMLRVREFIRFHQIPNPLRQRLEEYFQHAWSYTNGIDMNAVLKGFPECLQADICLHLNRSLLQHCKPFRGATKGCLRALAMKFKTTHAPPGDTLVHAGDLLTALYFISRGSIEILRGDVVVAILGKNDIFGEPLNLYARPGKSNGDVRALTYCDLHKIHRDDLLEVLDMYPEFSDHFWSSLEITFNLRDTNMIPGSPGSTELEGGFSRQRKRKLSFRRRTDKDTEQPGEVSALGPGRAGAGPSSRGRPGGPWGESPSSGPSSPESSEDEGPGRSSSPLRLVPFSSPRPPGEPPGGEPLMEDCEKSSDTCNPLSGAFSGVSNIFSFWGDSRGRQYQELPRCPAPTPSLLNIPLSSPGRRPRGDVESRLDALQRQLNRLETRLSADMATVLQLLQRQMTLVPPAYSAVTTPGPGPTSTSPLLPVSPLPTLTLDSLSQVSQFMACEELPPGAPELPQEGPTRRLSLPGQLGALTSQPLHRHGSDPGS

Molecules are shown by their SMILES. This is a selection; strong and weak results do not stand in their true shares. Activity calls are given as the source filed them.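 How the source made its calls: active means activation above the mean of controls blocked by dofetilide plus 5 SD; inactive means the rest.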

This assay has as its target Voltage-gated inwardly rectifying potassium channel KCNH2 (Homo sapiens) (UniProt Q12809). Briefly: PubChem AID 1511.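 Further: thallium influx through hERG after potassium depolarization seen as dye fluorescence rise.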 The conditions noted are these: CHO-hERG, FluxOR thallium flux, dofetilide IC70 present; at 10 µM; stronger effect = higher value. For orientation: The hERG channel carries a current that helps repolarise heart muscle cells.
As for `C[As](=O)(O)c1cccc(C(=O)O)c1`, the activation (rescue from dofetilide block), less the hit threshold is inactive: -7.25%.
The same measure for `O=[As](O)(c1ccc(O)cc1)c1ccccc1O`: inactive: -2.59%; for `N#CCCN(C(=O)COC(=O)C(O)(c1ccccc1)c1ccccc1)c1ccc(F)cc1`: inactive: -7.79%.
The result for `CN(C(=O)Cc1ccccc1)[C@@H]1CC[C@]2(CCCO2)C[C@H]1N1CCCC1` reads inactive: -6.33%; that for `CCOP1(=S)c2c(C)nn(CCC#N)c2N=C(c2ccc(F)cc2)N1C` (stereo not drawn), inactive: 0.93%.
The result for `O=[N+]([O-])c1ccc2c(c1)nnn2O` reads inactive: -6.36%.
On to `CN(C)C(=O)c1cc([N+](=O)[O-])cc2c1-c1c(cc([N+](=O)[O-])cc1[N+](=O)[O-])C2=O`, for which the activation (rescue from dofetilide block), less the hit threshold is inactive: -22.2%.
Regarding `CN(C(=O)Cc1ccc(Cl)c(Cl)c1)[C@H]1CC[C@@]2(CCCO2)C[C@@H]1N1CCCC1`, the activation (rescue from dofetilide block), less the hit threshold is inactive: -3.93%.
For `NC(=O)Nc1ccc([As](=O)(O)O)cc1`, the activation (rescue from dofetilide block), less the hit threshold is inactive: -3.92%.
`O=C(O)COc1ccc([As](=O)(O)O)cc1[N+](=O)[O-]`: the activation (rescue from dofetilide block), less the hit threshold was inactive: -13.5%.
On to `Nc1ccccc1[As](=O)(O)c1ccccc1`, for which the activation (rescue from dofetilide block), less the hit threshold is inactive: -3.12%.
The same measure for `CCOP1(=S)c2c(C)nn(CCC#N)c2N=C(c2ccccc2F)N1C` (stereo not drawn): inactive: -4.29%; for `O=P(Nc1nccs1)(Oc1ccccc1)Oc1ccccc1`: inactive: -7.48%; for `O=P(Nc1nccs1)(c1ccccc1)c1nc2ccccc2s1` (stereo not drawn): inactive: -10.5%.
Turning to `CS(=O)(=O)c1cc([N+](=O)[O-])c2no[n+]([O-])c2c1`, the activation (rescue from dofetilide block), less the hit threshold was inactive: -3.93%.
The result for `COc1cc(C2NCCC3(OCCO3)C2(C)C)cc(OC)c1OC` (stereo not drawn) reads inactive: -2.72%; that for `CCOP(=O)(Nc1cccc2ccccc12)OCC`, inactive: -6.88%; that for `Nc1cccc2c([As](=O)(O)O)cccc12`, inactive: -7.76%.
The same measure for `Cc1ccc(NCCc2c([N+](=O)[O-])cc([N+](=O)[O-])cc2[N+](=O)[O-])cc1`: inactive: -7.94%; for `CCCOP(=S)(Nc1nc(N)cc(=O)[nH]1)OCCC`: inactive: -5.59%; for `Cc1cccc(OCC(=O)OC2CN3CCC2CC3)c1` (stereo not drawn): inactive: -8.81%.
The same measure for `O=[As](O)(c1cccc(O)c1)c1cccc(O)c1`: inactive: -14%; for `O=C(OC1CN2CCC1CC2)c1ccc(Cl)cc1` (stereo not drawn): inactive: -8.7%.
In the case of `O=[As](O)(O)c1cccnc1`, the activation (rescue from dofetilide block), less the hit threshold is inactive: -5.55%.
In the case of `COc1cc(C(=O)NCC2(N3CCOCC3)CCCCC2)cc(Cl)c1OC(C)C`, the activation (rescue from dofetilide block), less the hit threshold was inactive: -7.04%.
`CS(=O)(=O)c1ccc(Cl)c(NC(=O)COC(=O)C(O)(c2ccccc2)c2ccccc2)c1`: the activation (rescue from dofetilide block), less the hit threshold is inactive: -15%.
For the compound `CN(C(=O)Cc1ccc(Cl)c(Cl)c1)[C@@H]1CCCC[C@H]1N1CCCC1`, the activation (rescue from dofetilide block), less the hit threshold was inactive: -5.61%.
With `CC(C)/C=N\N=C(\N)N[N+](=O)[O-]`, the activation (rescue from dofetilide block), less the hit threshold was inactive: -1.37%.
In the case of `O=[As](O)(c1ccccc1Br)c1ccccc1Br`, the activation (rescue from dofetilide block), less the hit threshold was inactive: -6.93%.
The result for `CC1(CBr)Cn2c(nc3ccccc3c2=O)S1` (stereo not drawn) reads inactive: -4.5%.
In the case of `COc1ccccc1CNC(=O)COC(=O)C(O)(c1ccccc1)c1ccccc1`, the activation (rescue from dofetilide block), less the hit threshold was inactive: -13.8%.
For `Clc1n[nH]nc1-c1nn[nH][15n]1`, the activation (rescue from dofetilide block), less the hit threshold was inactive: -4.76%.
The result for `CC(C)(C)C(=O)NC(Sc1ncccn1)C(Cl)(Cl)Cl` (stereo not drawn) reads inactive: -3.47%; that for `CCC1=CC2Cc3nc4ccc(Cl)cc4c(N)c3C(C1)C2` (stereo not drawn), inactive: -18.1%.
The same measure for `O=P1(Nc2ccccn2)COc2ccccc2OC1`: inactive: -12%; for `CCOP(=O)(NC(=NC(C)c1ccccc1)NC(C)c1ccccc1)OCC` (stereo not drawn): inactive: -0.58%; for `CCOP(=O)(Nc1ccc(C)cn1)OCC`: inactive: -8.15%.
Take `CN(CCCl)Cc1cc(Cl)c(NC2=NCCN2)c(Cl)c1`: the activation (rescue from dofetilide block), less the hit threshold was inactive: -4.53%.
On to `Nc1cccc([As](=O)(O)c2ccccc2)c1`, for which the activation (rescue from dofetilide block), less the hit threshold was inactive: -1.96%.
The same measure for `O=[As](O)(c1cccs1)c1cccs1`: inactive: -3.73%; for `Cc1ccc(OCC(=O)OC2CN3CCC2CC3)cc1` (stereo not drawn): inactive: -3.81%.
The same measure for `O=P1(Nc2ccc(Br)cn2)COc2ccccc2OC1`: inactive: -9.39%.
The result for `O=P1(Nc2ncccn2)COc2ccccc2OC1` reads inactive: -7.3%; that for `CN(C)C1(CNC(=O)c2ccc(S(C)(=O)=O)cc2)CCCCC1`, inactive: -3.1%; that for `O=C(/C=C/c1ccccc1)OC1CN2CCC1CC2` (stereo not drawn), inactive: -5.01%.
For the compound `Cc1nn(-c2ccccc2)c2c1P(=O)(N1CCOCC1)N(C)C(c1ccccc1)=N2` (stereo not drawn), the activation (rescue from dofetilide block), less the hit threshold is inactive: -0.15%.
The same measure for `Cc1ccc(C(=O)OC2CN3CCC2CC3)cc1` (stereo not drawn): inactive: -2.35%; for `CC1CCC(C(C)C)C(OP(=O)(Nc2ccccn2)c2ccccc2)C1` (stereo not drawn): inactive: -22.3%.
